In patent US6303578A, “Mu-opiate receptor peptides” (Administrators of the Tulane Educational Fund, priority 1999, dated 2001) one finds Ki data, which are given here for 1 compound.

The target of this test is δ receptors (Homo sapiens, UniProt P41143). Briefly: biochemical.

For the compound `C[C@@H](NC(=O)[C@@H](N)Cc1ccc(O)cc1)C(=O)NCC(=O)N(C)[C@@H](Cc1ccccc1)C(=O)NCCO` [DAMGO, reference compound], the Ki (usually the equilibrium dissociation constant of an inhibitor or competing ligand from its target) amounted to 190 ± 16 nM.
